Key:
human GLP-1 receptor = target: T1, human GLP-1 receptor (Homo sapiens, UniProt P43220); assay: cAMP response (HTRF) of HEK-293 cells stably expressing human GLP-1 receptor; format: cell-based; conditions: Table 5; cAMP, HEK-293; read-out: EC50 hGLP-1R
T1 construct: expressed in transfected cells; host or cells: HEK-293

Amino acid sequences for entries named in this document (tags omitted). Residues count along the entry.
UniProt P43220, 24-463: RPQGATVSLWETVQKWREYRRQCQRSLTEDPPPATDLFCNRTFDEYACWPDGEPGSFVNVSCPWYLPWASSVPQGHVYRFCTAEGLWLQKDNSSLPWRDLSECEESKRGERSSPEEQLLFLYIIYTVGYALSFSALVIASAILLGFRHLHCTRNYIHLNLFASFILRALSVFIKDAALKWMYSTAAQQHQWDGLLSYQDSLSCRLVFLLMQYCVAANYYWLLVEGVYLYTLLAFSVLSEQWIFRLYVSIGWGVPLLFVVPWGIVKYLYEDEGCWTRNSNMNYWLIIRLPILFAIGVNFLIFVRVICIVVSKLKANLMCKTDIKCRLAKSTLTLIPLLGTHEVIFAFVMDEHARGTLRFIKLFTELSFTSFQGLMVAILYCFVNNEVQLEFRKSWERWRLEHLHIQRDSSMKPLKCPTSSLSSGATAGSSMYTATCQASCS
UniProt P47871, 26-477: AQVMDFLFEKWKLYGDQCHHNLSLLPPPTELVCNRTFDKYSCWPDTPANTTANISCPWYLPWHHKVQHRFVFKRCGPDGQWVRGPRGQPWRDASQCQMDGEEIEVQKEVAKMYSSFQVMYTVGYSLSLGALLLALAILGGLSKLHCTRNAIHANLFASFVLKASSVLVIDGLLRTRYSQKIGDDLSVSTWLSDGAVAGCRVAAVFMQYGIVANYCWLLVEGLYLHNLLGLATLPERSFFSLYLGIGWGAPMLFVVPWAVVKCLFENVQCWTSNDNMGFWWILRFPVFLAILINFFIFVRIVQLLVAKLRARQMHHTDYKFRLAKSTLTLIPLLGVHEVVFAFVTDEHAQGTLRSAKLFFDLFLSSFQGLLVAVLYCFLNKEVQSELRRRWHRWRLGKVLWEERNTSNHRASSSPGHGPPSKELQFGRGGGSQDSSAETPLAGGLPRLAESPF

human glucagon receptor = target: T2, human glucagon receptor (Homo sapiens, UniProt P47871); assay: cAMP response (HTRF) of HEK-293 cells stably expressing human glucagon receptor; format: cell-based; conditions: Table 5; cAMP, HEK-293; read-out: EC50 hGlucagon-R
T2 construct: expressed in transfected cells; host or cells: HEK-293

EC50 (human GLP-1 receptor) [nM]	EC50 (human glucagon receptor) [nM]	Structure (SMILES)
0.197	0.009	CCCCCCCCCCCCCCCNC(=O)[C@H](CO)NC(=O)[C@@H]1CCCN1C(=O)[C@@H]1CCCN1C(=O)[C@@H]1CCCN1C(=O)[C@H](C)NC(=O)CNC(=O)[C@H](CO)NC(=O)[C@H](CO)NC(=O)[C@@H]1CCCN1C(=O)CNC(=O)CNC(=O)[C@H](CC(N)=O)NC(=O)[C@H](CCCCN)NC(=O)[C@H](CC(C)C)NC(=O)[C@H](Cc1c[nH]c2ccccc12)NC(=O)[C@H](CCC(=O)O)NC(=O)[C@@H](NC(=O)[C@H](Cc1ccccc1)NC(=O)[C@H](CC(=O)O)NC(=O)[C@H](CCC(N)=O)NC(=O)[C@H](C)NC(=O)[C@H](CCCNC(=N)N)NC(=O)[C@H](CCCNC(=N)N)NC(=O)[C@H](CO)NC(=O)[C@H](CC(=O)O)NC(=O)[C@H](CCCCNC(=O)CC[C@H](NC(=O)CCCCCCCCCCCCCCC)C(=O)O)NC(=O)[C@H](CCC(N)=O)NC(=O)[C@H](CCCCN)NC(=O)[C@H](CO)NC(=O)[C@H](CC(C)C)NC(=O)[C@H](CC(=O)O)NC(=O)[C@H](CO)NC(=O)[C@@H](NC(=O)[C@H](Cc1ccccc1)NC(=O)[C@@H](NC(=O)CNC(=O)[C@H](CCC(N)=O)NC(=O)[C@@H](CO)NC(=O)[C@@H](N)Cc1c[nH]cn1)[C@@H](C)O)[C@@H](C)O)[C@@H](C)CC [compound 108]
0.43	0.0286	CCCCCCCCCCCCCCCCCCNC(=O)[C@H](CO)NC(=O)[C@@H]1CCCN1C(=O)[C@@H]1CCCN1C(=O)[C@@H]1CCCN1C(=O)[C@H](C)NC(=O)CNC(=O)[C@H](CO)NC(=O)[C@H](CO)NC(=O)[C@@H]1CCCN1C(=O)CNC(=O)CNC(=O)[C@H](CC(N)=O)NC(=O)[C@H](CCCCN)NC(=O)[C@H](CC(C)C)NC(=O)[C@H](Cc1c[nH]c2ccccc12)NC(=O)[C@H](CCC(=O)O)NC(=O)[C@@H](NC(=O)[C@H](Cc1ccccc1)NC(=O)[C@H](CC(=O)O)NC(=O)[C@H](CCC(N)=O)NC(=O)[C@H](C)NC(=O)[C@H](CCCNC(=N)N)NC(=O)[C@H](CCCNC(=N)N)NC(=O)[C@H](CO)NC(=O)[C@H](CC(=O)O)NC(=O)[C@H](CCCCNC(=O)CC[C@H](NC(=O)CCCCCCCCCCCCCCC)C(=O)O)NC(=O)[C@H](CCC(N)=O)NC(=O)[C@H](CCCCN)NC(=O)[C@H](CO)NC(=O)[C@H](CC(C)C)NC(=O)[C@H](CC(=O)O)NC(=O)[C@H](CO)NC(=O)[C@@H](NC(=O)[C@H](Cc1ccccc1)NC(=O)[C@@H](NC(=O)CNC(=O)[C@H](CCC(N)=O)NC(=O)[C@@H](CO)NC(=O)[C@@H](N)Cc1c[nH]cn1)[C@@H](C)O)[C@@H](C)O)[C@@H](C)CC [compound 109]

Structure (SMILES)	EC50 (human GLP-1 receptor) [nM]	EC50 (human glucagon receptor) [nM]
CCCCCCCCCCCCCCCC(=O)N[C@@H](CCC(=O)NCCCC[C@H](NC(=O)[C@H](CCC(N)=O)NC(=O)[C@H](CCCCN)NC(=O)[C@H](CO)NC(=O)[C@H](CC(C)C)NC(=O)[C@H](CC(=O)O)NC(=O)[C@H](CO)NC(=O)[C@@H](NC(=O)[C@H](Cc1ccccc1)NC(=O)[C@@H](NC(=O)CNC(=O)[C@H](CCC(N)=O)NC(=O)[C@@H](CO)NC(=O)[C@@H](N)Cc1c[nH]cn1)[C@@H](C)O)[C@@H](C)O)C(=O)N[C@@H](CC(=O)O)C(=O)N[C@@H](CO)C(=O)N[C@@H](CCCNC(=N)N)C(=O)N[C@@H](CCCNC(=N)N)C(=O)N[C@@H](C)C(=O)N[C@@H](CCC(N)=O)C(=O)N[C@@H](CC(=O)O)C(=O)N[C@@H](Cc1ccccc1)C(=O)N[C@H](C(=O)N[C@@H](CCC(=O)O)C(=O)N[C@@H](Cc1c[nH]c2ccccc12)C(=O)N[C@@H](CC(C)C)C(=O)N[C@@H](CCCCN)C(=O)N[C@@H](CC(N)=O)C(=O)NCC(=O)NCC(=O)N1CCC[C@H]1C(=O)N[C@@H](CO)C(=O)N[C@@H](CO)C(=O)NCC(=O)N[C@@H](C)C(=O)N1CCC[C@H]1C(=O)N1CCC[C@H]1C(=O)N1CCC[C@H]1C(=O)N[C@@H](CO)C(=O)NCCCCCCCCCCCCCC)[C@@H](C)CC)C(=O)O [compound 110]	0.213	0.0072
